Literature values in patent EP4089093A1 (Eberhard Karls Universität Tübingen Medizinische Fakultät, priority 2021, dated 2022).

Amino acid sequences for entries named in this document (tags omitted).
UniProt P09874, whole entry: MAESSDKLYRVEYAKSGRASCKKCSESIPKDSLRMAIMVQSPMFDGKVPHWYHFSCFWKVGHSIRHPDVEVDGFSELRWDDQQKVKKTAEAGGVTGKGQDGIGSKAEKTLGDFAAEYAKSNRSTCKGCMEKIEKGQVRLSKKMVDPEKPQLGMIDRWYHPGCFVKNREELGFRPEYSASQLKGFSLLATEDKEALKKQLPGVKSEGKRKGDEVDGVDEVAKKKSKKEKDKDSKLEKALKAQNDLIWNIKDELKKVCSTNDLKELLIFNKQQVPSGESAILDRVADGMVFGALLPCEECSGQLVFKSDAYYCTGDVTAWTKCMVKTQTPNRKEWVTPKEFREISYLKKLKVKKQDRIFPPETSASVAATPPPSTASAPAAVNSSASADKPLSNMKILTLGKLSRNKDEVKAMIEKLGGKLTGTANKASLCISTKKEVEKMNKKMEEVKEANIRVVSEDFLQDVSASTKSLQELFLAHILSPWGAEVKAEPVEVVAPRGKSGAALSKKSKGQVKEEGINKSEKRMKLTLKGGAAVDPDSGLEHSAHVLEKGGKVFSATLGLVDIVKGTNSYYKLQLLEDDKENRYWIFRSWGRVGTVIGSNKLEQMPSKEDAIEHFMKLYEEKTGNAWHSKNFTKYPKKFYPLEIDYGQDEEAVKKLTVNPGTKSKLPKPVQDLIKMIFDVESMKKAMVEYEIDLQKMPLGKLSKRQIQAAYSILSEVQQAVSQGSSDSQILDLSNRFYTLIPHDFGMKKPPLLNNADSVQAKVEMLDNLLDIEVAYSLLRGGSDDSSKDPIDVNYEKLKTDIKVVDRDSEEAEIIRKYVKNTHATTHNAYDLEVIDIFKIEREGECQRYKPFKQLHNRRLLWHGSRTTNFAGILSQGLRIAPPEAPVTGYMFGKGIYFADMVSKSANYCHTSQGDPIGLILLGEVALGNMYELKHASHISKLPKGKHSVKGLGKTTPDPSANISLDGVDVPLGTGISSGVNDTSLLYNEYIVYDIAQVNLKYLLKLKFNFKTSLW

Biological target: PARP1 (Homo sapiens, UniProt P09874)
Conditions: relative to talazoparib

Cn1ncnc1[C@@H]1c2n[nH]c(=O)c3cc(F)cc(c23)N[C@H]1c1ccc(F)cc1 [LT-674]
potency of the (8R, 9S)-enantiomer compared with the (8S, 9R)-enantiomer (talazoparib): less active by several orders of magnitude
